The data set relates to cells. Format: cell-based. Also noted: unit not given beside the values. The protocol:
The plates are incubated at 37° C., 5% CO2 overnight (approximately 16 hours). The next day the plates are checked under the microscope to see if there are any visual signs of toxicity. Records are made of any cell death, debris, or morphology changes, as well as insoluble compounds (particulate or turbity).

As to “2,6-di-tert-butyl-4-thio(3′,5′-ditert-butyl,4′-hydroxy butanedioic acid ester)phenol”, the LD50 is on record as 50.
